Data published in ChEMBL document CHEMBL1140805, “1-Toluene-sulfonyl-3-[(3'-hydroxy-5'-substituted)-gamma-butyrolactone]-indoles: synthesis, COX-2 inhibition and anti-cancer activities” (Bioorg Med Chem Lett, 2008).

Amino acid sequences for entries named in this document (tags omitted). Residues count along the entry.
UniProt P05979, 25-600 limits assumed: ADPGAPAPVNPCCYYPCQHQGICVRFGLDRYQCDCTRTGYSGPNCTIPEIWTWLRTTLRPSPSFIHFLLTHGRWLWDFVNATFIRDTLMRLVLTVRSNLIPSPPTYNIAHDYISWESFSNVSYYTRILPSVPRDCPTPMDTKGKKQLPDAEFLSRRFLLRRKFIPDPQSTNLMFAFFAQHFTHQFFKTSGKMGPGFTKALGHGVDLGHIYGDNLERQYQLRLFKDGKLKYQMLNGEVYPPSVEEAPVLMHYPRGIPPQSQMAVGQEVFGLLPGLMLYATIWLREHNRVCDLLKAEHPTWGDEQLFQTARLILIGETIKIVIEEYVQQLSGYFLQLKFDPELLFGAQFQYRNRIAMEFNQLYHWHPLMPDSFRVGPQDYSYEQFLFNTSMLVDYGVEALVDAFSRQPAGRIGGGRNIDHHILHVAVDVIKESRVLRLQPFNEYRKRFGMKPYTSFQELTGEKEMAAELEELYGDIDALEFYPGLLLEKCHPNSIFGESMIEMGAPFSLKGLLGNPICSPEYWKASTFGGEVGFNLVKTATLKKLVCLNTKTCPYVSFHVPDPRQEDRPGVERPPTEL
UniProt P79208, 17-603 limits assumed: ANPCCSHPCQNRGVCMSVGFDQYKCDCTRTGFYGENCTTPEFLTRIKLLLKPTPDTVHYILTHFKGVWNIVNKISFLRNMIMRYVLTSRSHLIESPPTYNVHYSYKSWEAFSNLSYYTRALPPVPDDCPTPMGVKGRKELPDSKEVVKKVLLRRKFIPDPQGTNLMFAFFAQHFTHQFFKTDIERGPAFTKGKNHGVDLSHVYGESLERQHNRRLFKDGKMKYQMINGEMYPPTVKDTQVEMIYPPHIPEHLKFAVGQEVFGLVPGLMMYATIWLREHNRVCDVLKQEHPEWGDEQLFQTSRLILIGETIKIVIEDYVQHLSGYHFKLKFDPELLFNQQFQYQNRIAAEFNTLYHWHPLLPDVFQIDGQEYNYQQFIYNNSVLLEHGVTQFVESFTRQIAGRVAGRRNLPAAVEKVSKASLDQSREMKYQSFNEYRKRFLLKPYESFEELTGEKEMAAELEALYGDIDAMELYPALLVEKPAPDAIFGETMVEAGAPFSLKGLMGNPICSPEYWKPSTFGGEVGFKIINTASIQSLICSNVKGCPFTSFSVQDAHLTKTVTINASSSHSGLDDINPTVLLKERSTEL

Tests used:
MCF7 = experiment: Antitumor activity against human MCF7 cells
[1] = Partition coefficient, log P of the compound; conditions: octanol/water
[2] = molecular target: Prostaglandin G/H synthase 1 (Ovis aries, UniProt P05979)
PC-3 = experiment: Antitumor activity against human PC3 cells
Malme-3M = experiment: Antitumor activity against human MALME3M cells
MDA-MB-435 = experiment: Antitumor activity against human MDA-MB-435 cells
RXF 393 = experiment: Antitumor activity against human RXF393 cells
M14 = experiment: Antitumor activity against human M14 cells
[3] = molecular target: Prostaglandin G/H synthase 2 (Ovis aries, UniProt P79208)

SMILES: Cc1ccc(S(=O)(=O)n2cc([C@@]3(O)C[C@H](CC#N)OC3=O)c3ccccc32)cc1
- GI50 (MCF7): 100 nM
- LogP [1]: 0.94
- pIC50 [2]: > 5.00
- GI50 (PC-3): 100 nM
- GI50 (Malme-3M): 100 nM
- GI50 (MDA-MB-435): 100 nM
- GI50 (RXF 393): 100 nM
- GI50 (M14): 100 nM
- pIC50 [3]: > 9.00

pIC50: −log10 of the molar value.
